Experimental findings from patent publication US20040192665A1 (priority 2002, published 2004) are described below.

The assay has as its system DU-145 human prostate tumor cells. As to the kind of experiment: DU-145 xenograft tumor growth in nude mice. It is filed as in vivo, nude mice (nu/nu). The settings on record: experiment 2; I.P. 8 mg/kg once per week; 46 days after injection. Here is the method: Cage were cleaned and bedding changed once weekly. Irradiated corn cob bedding was used. Animals were observed daily and clinical signs were noted.
Morbidity and mortality were monitored daily.
The dosage level was determined by exact body weight.
Five mice per treatment group were tested.
Animals were treated once per week for 5 weeks.

As to `COc1cccc2c1C(=O)c1c(O)c3c(c(O)c1C2=O)C[C@@](O)(C(=O)CO)C[C@@H]3O[C@H]1C[C@H](N)[C@H](O)[C@H](C)O1` [doxorubicin], the average tumor volume worked out at 106 mm^3.
